From doi:10.1101/2024.08.28.609967, “Reconstitution of BNIP3/NIX-mediated autophagy reveals two pathways and hierarchical flexibility of the initiation machinery” (bioRxiv, 2024)

Target: T1, GFP-tagged ATG13/101 subcomplex (UniProt O75143 1-517; Q9BSB4 1-218)
T1 construct: ATG13; ATG101; source: FreeStyle HEK293F cells, transfected, purified (glutathione beads, TEV cleavage, SEC); not shown: GST, N-terminal, cleaved; GFP, N-terminal, kept
T1 sequence (looked up) 1: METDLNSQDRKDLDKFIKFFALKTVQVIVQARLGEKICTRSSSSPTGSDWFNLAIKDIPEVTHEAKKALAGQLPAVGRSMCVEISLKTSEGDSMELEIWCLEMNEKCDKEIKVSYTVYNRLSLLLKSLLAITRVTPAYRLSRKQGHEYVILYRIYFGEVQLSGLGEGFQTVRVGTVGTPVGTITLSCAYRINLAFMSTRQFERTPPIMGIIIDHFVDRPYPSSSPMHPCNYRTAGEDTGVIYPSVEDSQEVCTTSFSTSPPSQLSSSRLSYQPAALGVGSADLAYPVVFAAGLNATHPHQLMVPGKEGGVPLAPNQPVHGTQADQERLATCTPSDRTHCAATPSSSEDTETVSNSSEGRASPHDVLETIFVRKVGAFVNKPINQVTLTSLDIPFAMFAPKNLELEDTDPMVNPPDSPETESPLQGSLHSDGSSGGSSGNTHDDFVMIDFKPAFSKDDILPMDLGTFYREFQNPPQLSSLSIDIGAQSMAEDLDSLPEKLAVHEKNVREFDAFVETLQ
T1 sequence (looked up) 2: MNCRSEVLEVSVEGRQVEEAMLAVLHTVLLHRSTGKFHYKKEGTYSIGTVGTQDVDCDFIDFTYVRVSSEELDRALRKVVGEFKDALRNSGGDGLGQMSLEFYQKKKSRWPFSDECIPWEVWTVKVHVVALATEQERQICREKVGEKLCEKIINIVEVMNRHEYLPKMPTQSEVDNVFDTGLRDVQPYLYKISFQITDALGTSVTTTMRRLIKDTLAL
Assay: microscopy-based bead assay; GFP-trap agarose beads coated with GFP-tagged bait (ULK1 complex, ATG13/101, FIP200, ULK1 K46I, ATG13 IDR and its fragments or variants; 5 uM), mCherry-tagged WIPI proteins as prey; 25 mM Tris-HCl pH 7.4, 150 mM NaCl, 1 mM DTT; confocal imaging
Details: both partners purified

binding result: binds
B1: mCherry-WIPI3 (natural protein)
chain: not shown
notes: also called mCherry-tagged WIPI3; source: E. coli Rosetta pLysS, purified (His-Trap, SEC); not shown: mCherry, N-terminal, kept
